{
  "sequences": {"note": "Protein sequences, listed by entry. Tags and fused reporters are not part of them.", "UniProt P21452, whole entry": "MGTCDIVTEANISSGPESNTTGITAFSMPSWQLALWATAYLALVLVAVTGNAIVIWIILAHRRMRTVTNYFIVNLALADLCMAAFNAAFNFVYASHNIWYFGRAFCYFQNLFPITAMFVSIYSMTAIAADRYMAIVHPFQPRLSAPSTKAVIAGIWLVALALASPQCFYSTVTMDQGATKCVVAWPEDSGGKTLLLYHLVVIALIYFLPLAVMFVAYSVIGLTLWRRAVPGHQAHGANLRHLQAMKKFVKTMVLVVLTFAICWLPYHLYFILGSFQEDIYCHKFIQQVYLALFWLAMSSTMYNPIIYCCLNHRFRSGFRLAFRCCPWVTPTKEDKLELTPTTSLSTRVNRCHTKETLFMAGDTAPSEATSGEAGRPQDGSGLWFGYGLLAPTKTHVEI"},
  "source": "patent US10799605B2",
  "about": "(3B PHARMACEUTICALS GMBH, priority 2014, dated 2020)",
  "molecular_target": "NK2 (h) (Homo sapiens (Human), UniProt P21452)",
  "test": "ExpresSProfile: neurokinin receptor 2, agonist radioligand",
  "type": "binding",
  "details": "Reference Compound; read-out: Ki Ref",
  "data": [
    {"smiles": "CCCC[C@H](NC(=O)[C@H](CC(C)C)NC(=O)CNC(=O)[C@@H](NC(=O)[C@H](Cc1ccccc1)NC(=O)[C@H](CO)NC(=O)[C@@H](N)CC(=O)O)C(C)C)C(N)=O", "values": [
      {"measurement": "Ki", "result": 2.5, "unit": "nM"}
    ]}
  ]
}
